HCMV NEC inh: cytomegalovirus nuclear egress complex inhibition; inhibition, % (test concentration not listed); HTRF UL50-UL53 interaction, normalized percent inhibition; 0.15% of 190,000 active; in the data active = inhibition above about 27%, passing the limit was not always enough
GIV-Gai inh: blocks GIV peptide binding to rat Galpha-i3. P08753. Galpha-i3/FITC-GIV peptide fluorescence polarization, 90 min; stronger effect = lower value; scaled: aluminum fluoride 0%, vehicle 100%. percent of control (FP), % (test concentration not listed). 0.42% of 210,000 active. AID 1224905;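 active = replicate mean at 85% of control or lower, very high polarization wells dropped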;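 note: wells of about 15 µL received 100 nL stock; the first replicate is given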
Active calls of the source: *; . = no result given. Many of the other results were omitted from the sample, so hits are more common in it than they were.

1	CC1CCCN(C/C(O)=C(\C#N)c2nc3ccccc3[nH]2)C1 (stereo not given)
2	CN1CCN(Cc2c(O)ccc3cc(-c4nc5ccccc5[nH]4)c(=O)oc23)CC1
3	CCOc1cccc2cc(-c3nc4ccccc4[nH]3)c(=O)oc12
4	CCC1CCCCN1Cc1c(O)ccc2cc(-c3nc4ccccc4[nH]3)c(=O)oc12 (stereo not given)
5	O=C1COc2ccc(-c3csc(-n4nccc4C(F)(F)F)n3)cc2N1
6	NC(=O)NCCc1cccs1
7	CNC(=O)c1ccc(Cn2c(=O)c3cc(OC)c(OC)cc3n(C)c2=O)cc1
8	CCCN(CCC)S(=O)(=O)c1ncn[nH]1

| Assay by compound | 1 | 2 | 3 | 4 | 5 | 6 | 7 | 8 |
| --- | --- | --- | --- | --- | --- | --- | --- | --- |
| GIV-Gai inh | 104 | -75* | . | -42* | . | . | 110 | 102 |
| HCMV NEC inh | -21 | -60 | -14 | . | -13 | -2 | -16 | -36 |

9	CN(C)S(=O)(=O)c1ccc(-c2noc(C(=O)NCc3ccccn3)n2)cc1
10	CCN1C(=O)CCSc2ccccc21
11	CCN1/C(=C\C(=O)C2CC2)Sc2ccccc21
12	CCN1/C(=C/C2=CC(=O)CC(C)(C)C2)Sc2ccccc21
13	CCN1/C(=C\C=C2C(=O)OC(C)(C)OC2=O)Sc2ccccc21
14	CCOc1ccccc1CNC(=O)c1ccc2nc(CCc3ccccc3)oc2c1
15	CCC(C(=O)Nc1ccc(OC)cc1)n1nc(-c2ccc(C)cc2)c2c(c1=O)CCCC2 (stereo not given)
16	CCOC(=O)C1=C(C)N=c2s/c(=C\c3cc(Br)c(O)c(OC)c3)c(=O)n2C1c1cccs1 (stereo not given)

| Assay by compound | 9 | 10 | 11 | 12 | 13 | 14 | 15 | 16 |
| --- | --- | --- | --- | --- | --- | --- | --- | --- |
| GIV-Gai inh | 104 | 104 | 100 | -24* | -34* | 96 | 98 | 77* |
| HCMV NEC inh | . | -41 | -27 | . | -25 | . | -4 | -18 |

17	CCOC(=O)C1=C(C)N=c2s/c(=C\c3cc(Br)c(O)c(OC)c3)c(=O)n2C1c1ccc2c(c1)OCO2 (stereo not given)
18	CCOC(=O)C1=C(C)N=c2s/c(=C\c3cc(Br)c(OC)cc3OC)c(=O)n2C1c1cccs1 (stereo not given)
19	CCOC(=O)C1=C(C)N=c2s/c(=C\c3cc(OC)c(OC)c(OC)c3)c(=O)n2C1c1ccc2c(c1)OCO2 (stereo not given)
20	O=C(Nc1ccc(S(=O)(=O)NC2=NCCCCC2)cc1)C1=NN(c2ccccc2)C(=O)CC1
21	Cc1cc(=O)oc2c3c(ccc12)O/C(=C\c1ccccc1[N+](=O)[O-])C3=O
22	Cc1csc(-c2cc(S(=O)(=O)Nc3ccc(S(N)(=O)=O)cc3)c(C)s2)n1
23	Cc1csc(-c2cc(S(=O)(=O)Nc3ccc(C)c(F)c3)c(C)s2)n1
24	Cc1ccc(C)c(OCCCC(=O)Nc2ccc(N3CCOCC3)cc2)c1

| Assay by compound | 17 | 18 | 19 | 20 | 21 | 22 | 23 | 24 |
| --- | --- | --- | --- | --- | --- | --- | --- | --- |
| GIV-Gai inh | -57* | 147 | 103 | . | 117 | 170 | 66* | 101 |
| HCMV NEC inh | -23 | -30 | -22 | -18 | . | . | . | 92* |

25	Cc1ccc(NC(=O)CS(=O)CC(=O)Nc2ccc(N3CCOCC3)cc2)cc1Cl (stereo not given)
26	CNC(=O)C1CCCN(C(=O)c2ccc(NS(=O)(=O)c3ccc(C(C)(C)C)cc3)cc2)C1 (stereo not given)
27	O=S(=O)(c1ccccc1)N1CCCC(C(F)(F)F)C1 (stereo not given)
28	Nc1c(C(=O)N2CCOCC2)sc2nc3c(cc12)CCCC3
29	Cc1cc(C)c2nc3sc(C(=O)N4CCOCC4)c(N)c3cc2c1
30	COc1ccc2nc3sc(C(=O)N4CCCC4)c(N)c3cc2c1
31	Cc1ccc2nc3sc(C(=O)O)c(N)c3cc2c1
32	COc1ccc(S(=O)(=O)c2csc3c2NC(=O)CC3c2ccsc2)cc1 (stereo not given)

| Assay by compound | 25 | 26 | 27 | 28 | 29 | 30 | 31 | 32 |
| --- | --- | --- | --- | --- | --- | --- | --- | --- |
| GIV-Gai inh | 99 | 105 | 108 | 105 | -49* | -62* | 105 | 101 |
| HCMV NEC inh | -7 | . | 14 | -73 | -106 | -55 | -108 | -7 |

33	Cc1cc(C)c(C#N)c(SCCCCN2C(=O)c3ccccc3C2=O)n1
34	Nc1ncc(-c2nc3ccccc3s2)c(N)n1
35	Nc1ccc(-c2nc3ccccc3s2)cc1
36	CSc1nc(NC(C)C)c(C#N)c(-c2ccccc2)n1
37	CSc1nc(NCc2ccccc2)c(C#N)c(-c2ccccc2)n1
38	COc1cc(C2C(C(=O)N3CCCCC3)=C(C)NC3=C2C(=O)CC(C)(C)C3)cc([N+](=O)[O-])c1O (stereo not given)
39	c1ccc(-c2cnc(SCCN3CCCCC3)nn2)cc1
40	CCOC(=O)C1=C(O)/C(=C/c2ccc(OCC)cc2)SC1=Nc1ccccc1

| Assay by compound | 33 | 34 | 35 | 36 | 37 | 38 | 39 | 40 |
| --- | --- | --- | --- | --- | --- | --- | --- | --- |
| GIV-Gai inh | . | -55* | . | 97 | 100 | 102 | 99 | 112 |
| HCMV NEC inh | 9 | -14 | -35 | 29* | 22 | . | -117 | . |

41	CCOC(=O)C1=C(O)/C(=C/c2ccc(N3CCOCC3)o2)SC1=Nc1ccc(OCC)cc1
42	CCn1c2ccccc2c2cc(/C=C3\CCC(C4CCCC4)C3=O)ccc21 (stereo not given)
43	O=C1/C(=C/c2ccc(N3CCOCC3)cc2)Cc2ccccc21
44	O=C1NC(=O)C(=Cc2ccc(N3CCCC3)cc2)C(=O)N1
45	O=C1C(=Cc2ccc(N3CCCC3)cc2)C(=O)c2ccccc21
46	O=C1/C(=C/c2ccc(N3CCOCC3)cc2)CC/C1=C\c1ccc(N2CCOCC2)cc1
47	CN(C)c1ccc(/C=C2\CCC/C(=C\c3ccccc3)C2=O)cc1
48	CCn1c2ccccc2c2cc(/C=C3\Cc4ccccc4C3=O)ccc21

| Assay by compound | 41 | 42 | 43 | 44 | 45 | 46 | 47 | 48 |
| --- | --- | --- | --- | --- | --- | --- | --- | --- |
| GIV-Gai inh | -15* | 106 | -75* | 99 | -61* | 133 | 155 | -74* |
| HCMV NEC inh | -22 | . | . | -4 | -4 | . | . | . |

49	CN(C)c1ccc(/C=C2\Cc3ccccc3C2=O)cc1
50	CC(C)c1ccc(N=C2CC(=O)NN2)cc1
51	CC1=C(C(=O)Nc2ccc(Br)cn2)C(c2ccccc2C)C2=C(CC(C)(C)CC2=O)N1 (stereo not given)
52	COC(=O)C1=C(C)NC(=O)/C1=C\c1cccc2ccccc12
53	O=C1/C(=C/c2cccc3ccccc23)Nc2ccccc21
54	O=C1/C(=C/c2ccc(O)cc2)SC(=S)N1CCc1ccccc1
55	CO/C=C1\SC(=S)N(CCc2ccccc2)C1=O
56	Cc1ccc(NC(=O)c2cc3ccccc3oc2=N)cc1

| Assay by compound | 49 | 50 | 51 | 52 | 53 | 54 | 55 | 56 |
| --- | --- | --- | --- | --- | --- | --- | --- | --- |
| GIV-Gai inh | -75* | 102 | 106 | 113 | 57* | -5.9* | 154 | 104 |
| HCMV NEC inh | . | -23 | 3 | . | -9 | . | -52 | . |

Rewritten bar-delimited: part of the list above
no. | smiles | GIV-Gai inh | HCMV NEC inh
49 | CN(C)c1ccc(/C=C2\Cc3ccccc3C2=O)cc1 | -75* | .
50 | CC(C)c1ccc(N=C2CC(=O)NN2)cc1 | 102 | -23
51 | CC1=C(C(=O)Nc2ccc(Br)cn2)C(c2ccccc2C)C2=C(CC(C)(C)CC2=O)N1 (stereo not given) | 106 | 3
52 | COC(=O)C1=C(C)NC(=O)/C1=C\c1cccc2ccccc12 | 113 | .

More entries.
57	N=c1oc2c3c4c(cc2cc1C(=O)Nc1ccccc1)CCCN4CCC3
58	N#Cc1ccc(NC(=O)c2ccc(Br)cc2)cc1
59	CCOC(=O)c1ccc(NC(=O)c2cc3cc4c5c(c3oc2=N)CCCN5CCC4)cc1
60	CCOC(=O)c1ccc(NC(=O)c2cc3cc(Cl)ccc3oc2=N)cc1
61	N#Cc1ccc(NC(=O)c2cc3cc4c5c(c3oc2=N)CCCN5CCC4)cc1
62	O/N=C/c1ccc(-c2cccs2)s1
63	Cc1csc(-c2cc(S(=O)(=O)N3CCOCC3)cn2CC(=O)N2CCCCC2)n1
64	CCOC(=O)C1(C#N)C(=O)C(C#N)=C2CCCCC2C1c1ccccc1 (stereo not given)

| Assay by compound | 57 | 58 | 59 | 60 | 61 | 62 | 63 | 64 |
| --- | --- | --- | --- | --- | --- | --- | --- | --- |
| GIV-Gai inh | -62* | . | -14* | 100 | -14* | 102 | 101 | -31* |
| HCMV NEC inh | -4 | -30 | -9 | -16 | . | -52 | . | -68 |

65	CCOC(=O)C1=C(C)NC2=C(C(=O)CCC2)C1c1ccccc1 (stereo not given)
66	N#Cc1c(-c2ccco2)cc(-c2cccs2)nc1N
67	Nc1c(C(=O)c2cccs2)oc2nc(-c3cccs3)cc(-c3ccco3)c12
68	CC(C=C1C(=O)NC(=O)NC1=O)c1ccccc1 (stereo not given)
69	O=C1NC(=O)C(=Cc2ccc(-c3ccccc3)o2)C(=O)N1
70	Cc1cccn2c(=O)c3cc(C(=O)NC(C)c4ccccc4)c(=N)n(CC4CCCO4)c3nc12 (stereo not given)
71	O=C1NC(=O)N(C2CCCCC2)C(=O)/C1=C\c1ccc(-c2ccc(C(=O)O)cc2)o1

| Assay by compound | 65 | 66 | 67 | 68 | 69 | 70 | 71 |
| --- | --- | --- | --- | --- | --- | --- | --- |
| GIV-Gai inh | 100 | 114 | -54* | 113 | 93 | 107 | 112 |
| HCMV NEC inh | -28 | 45 | -31 | 62* | . | . | -24 |

Source: PubChem (ICCB-Longwood Screening Facility, Harvard Medical School)
